From patent publication US10105380B2, “Glycoclusters and their pharmaceutical use as antibacterials” (priority 2013, dated 2018)

Amino acid sequences for entries named in this document (tags omitted). Residues count along the entry.
UniProt Q05097, 2-122: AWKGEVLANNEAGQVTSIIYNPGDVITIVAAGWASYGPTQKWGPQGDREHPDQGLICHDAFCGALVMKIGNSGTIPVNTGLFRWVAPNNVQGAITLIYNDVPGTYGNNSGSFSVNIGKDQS

Biological target: PA-IL (Pseudomonas aeruginosa, UniProt Q05097)
Conditions: lactose concentration required to displace 50% of PA-IL from the glycocluster; higher = better binding
Method: IC50 Determination with “on Chip” Biological Recognition
Lectin PA-IL (0.12 μM final concentration), BSA (2% final concentration) and CaCl2 (1 μg/mL final concentration) was diluted in PBS1× (pH=7.4). In each micro tube was added the inhibitor lactose at the desired final concentration (0; 1.10^−5; 1.10^−4; 5.10^−4; 1.10^−3; 5.10^−3; 1.10^−2; 5.10^−2; 0.1; 1; 5; 10; 50; 10^2; 5.10^2; 10^3; 5.10^3; 10^4; 10^5; 3.10^5).
2 μL of each solution were deposited in the corresponding microwells and the slide was incubated at 37° C. in a water vapor saturated chamber for 3 h. The washing steps are: PBS-Tween0.2% 5 min at 4° C., then briefly in deionized water and dried by centrifugation.
Slide was scanned at 532 nm then at 635 nm with the Microarray scanner, GenePix 4100A software package (Axon Instruments; λex 532/635 nm and λem 575/670 nm). The fluorescence signal of each conjugate was determined as the average of the mean fluorescence signal of sixty-four spots.
IC50 values were determined using “BioDataFit 1.02 program”. The model chosen was “Sigmoidal”: Y=a+(b−a)/[1+10^(x−c)]
with a=FImin, b=FImax, x=[…] and c=log(IC50). FImin/max is the minimum/maximum Alexa-647 fluorescence signal observed for a galactomimetic.
So the IC50 value was called IC50Lac.

Man(POProTzAcNPhe-O-Gal)4 [17d] gave an IC50 of 2830 µM.
